# Earlier results in US20210275657A1, “NEOANTIGENS AND USES THEREOF” (BioNTech US Inc., priority 2018, published 2021).
# Conditions: more than 25 clinical trials; cited from earlier work
substance,measurement,value
poly-ICLC,toxicity profile,relatively benign toxicity profile
